Consider one substance from patent US20150342165A1, “HUMANIZED MOUSE AND METHODS OF USING THE SAME” (City of Hope, priority 2014, published 2015).

The test system of the data set is GM-HSPC and their progeny. The conditions noted are these: drug treated mice. On the procedure: All animals except control mice received 20 mg/kg O^6BG (Sigma-Aldrich, St. Louis, Mo.) followed by 5 mg/kg BCNU (Sigma-Aldrich, St. Louis, Mo.) mouse 1.5 hour later via IP injection. Drug doses were administered at either at the 7th and 8th or 7th, 8th, and 9th weeks post-transplantation. O^6BG was prepared in 35% PEG-400 (Sigma-Aldrich, St. Louis, Mo.) and 60% injectable saline.
Lentiviral vector was produced by calcium phosphate precipitation in HEK293T cells as previously described by Li M J et al. (2005). CD34+ cells were pre-stimulated overnight in SFT6. Lentiviral transduction was conducted at 1×10^6 cells/mL on Retronectin™ (Takara, Otsu-Shiga Japan)-coated non-tissue culture T-75 flask for 24 h in the presence of […] rapamycin (Sigma-Aldrich, St. Louis, Mo.). […]
Mice were necropsied at 16 or 25 weeks post transplantation for analysis of engraftment. […] Samples were analyzed using a Gallios flow cytometer (Beckman Coulter, Hialeah, Fla.) and data analyzed with FCS Express software (De Novo Software, Los Angeles, Calif.).
Lentiviral vectors expressing unique combinations of small anti-HIV RNAs expressed from a naturally occurring micro RNA cluster (MCM-7) are known. […] Two weeks later (11 weeks following transplantation) animals were necropsied and the level of engraftment of the spleen and bone marrow were determined.

Turning to “O^6-benzylguanine; bis-chloronitrosourea [O^6BG/BCNU]”, the “Deficiencies in lineage development” value is reported as “No deficiencies”.
